The values that follow come from patent publication US6898533B1, “Methods for predicting the biological, chemical, and physical properties of molecules from their spectral properties” (The United States of America as represented by the …, priority 2000, dated 2005).

Sequences of proteins named here, by UniProt entry; tags and fusion partners are left off.
UniProt Q62986, whole entry: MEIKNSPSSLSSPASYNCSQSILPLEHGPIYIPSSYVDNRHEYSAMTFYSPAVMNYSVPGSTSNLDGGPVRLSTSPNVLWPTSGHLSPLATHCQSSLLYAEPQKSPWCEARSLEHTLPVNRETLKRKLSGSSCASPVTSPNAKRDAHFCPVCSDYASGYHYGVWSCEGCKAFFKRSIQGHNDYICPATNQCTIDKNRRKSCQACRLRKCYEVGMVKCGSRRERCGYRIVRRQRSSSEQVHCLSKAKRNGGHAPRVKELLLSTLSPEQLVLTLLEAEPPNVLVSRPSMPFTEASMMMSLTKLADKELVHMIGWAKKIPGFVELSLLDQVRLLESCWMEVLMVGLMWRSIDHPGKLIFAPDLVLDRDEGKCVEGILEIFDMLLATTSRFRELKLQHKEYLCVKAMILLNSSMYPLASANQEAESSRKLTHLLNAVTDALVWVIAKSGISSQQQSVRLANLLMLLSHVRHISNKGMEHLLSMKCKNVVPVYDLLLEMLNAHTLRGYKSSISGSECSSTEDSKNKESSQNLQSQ

Experiment [1] relates to estrogen receptor. Briefly: estrogen receptor relative binding affinity, expanded training set of 107 compounds. The following applies: input class, 107-compound training set.
Experiment [2] has as its target beta (ERβ) estrogen receptor (Rattus norvegicus, UniProt Q62986). The following applies: cited from earlier work.

Each structure is given as a SMILES string.

Take `C[C@]12CC[C@@H]3c4cc(O)c(O)cc4CC[C@H]3[C@@H]1CC[C@@H]2O` [2-hydroxy-estradiol]: the Class entry in experiment [1] is listed as “S (strong estrogen receptor binders were defined as having log(RBA)>−0.25)”. In addition, in experiment [2], the “Log-(RBA) beta” value is on record as 1.04.
As for `C[C@]12CC[C@@H]3c4ccc(O)cc4CC[C@H]3[C@@H]1CC[C@@H]2O` [17β-Estradiol], in experiment [2], the “Log-(RBA) beta” value was 2.00.
